Laboratory results: paper PMC6722387 (Cellular and Molecular Gastroenterology and Hepatology, 2019)

System: human iPS-IECMs
Test: FD-4 permeability test across human iPS-IECMs
Format: in vitro ADME
Conditions: 13 mM n-capric acid (C10) in apical chamber, 90 min

- FD-4 Papp change by C10 treatment: increased
SMILES: CCCCCCCCCC(=O)O [C10, n-capric acid]
